For 1 compound, IC50 results are on record in BindingDB's records for doi:10.1016/j.bmc.2015.04.057 (Beni-Suef University, 2015).

As a reminder, the IC50 is the point on the concentration scale where inhibition reaches its midpoint.

This assay in a line: Antiinflammatory activity in mouse RAW264.7 cells assessed as inhibition of LPS-induced iNOS activity incubated for 30 mins prior to LPS challenge measured after 24 hrs by Griess assay.

Turning to `O=c1sc2ccccc2n1CCCCCN1CCN(CCCCn2c(=O)sc3ccccc32)CC1`, the IC50 was 1.44 µM.
